# System: diet induced obese (DIO) mouse
# Test: Diet Induced Obesity (DIO) mouse model
# Type: in vivo, C57BL/6 mice
# Settings: DIO mice, after 5 weeks of treatment; SRT1933 100 mg/kg, rosiglitazone 5 mg/kg once daily oral
# Protocol: The vehicle used was 2% HPMC −0.2% DOSS. Individual mouse body weights were measured twice weekly. Every 2 weeks throughout the study, mice from each group were bled via the tail vein for determination of blood glucose and blood plasma insulin. After 1, 3 and 5 weeks of dosing, a fasted blood glucose measure was taken and after 5 weeks of treatment an IPGTT was conducted on all mice from each of the groups. After 9 weeks of treatment, an ITT was conducted and a rectal body temperature was taken on all mice from each of the groups. Statistical analysis was completed using the JMP program (Version 6). Data were analyzed by a one way ANOVA with comparison to control using a Dunnett's Test. A p value <0.05 indicated a significant difference between groups.
structure (smiles),measurement,value
"CN(CCOc1ccc(CC2SC(=O)NC2=O)cc1)c1ccccn1 (stereo not shown) [rosiglitazone, reference compound]",glucose excursion in OGTT (AUC),496 ± 20 mg·h/dL
